Test results reported in patent US20030224390A1, “Method of identifying conformation-sensitive binding peptides and uses thereof” (Karo Bio AB, priority 2000, published 2003).

By UniProt entry, the sequences of proteins in these tests, tags left out.
UniProt P10275, whole entry, species assumed: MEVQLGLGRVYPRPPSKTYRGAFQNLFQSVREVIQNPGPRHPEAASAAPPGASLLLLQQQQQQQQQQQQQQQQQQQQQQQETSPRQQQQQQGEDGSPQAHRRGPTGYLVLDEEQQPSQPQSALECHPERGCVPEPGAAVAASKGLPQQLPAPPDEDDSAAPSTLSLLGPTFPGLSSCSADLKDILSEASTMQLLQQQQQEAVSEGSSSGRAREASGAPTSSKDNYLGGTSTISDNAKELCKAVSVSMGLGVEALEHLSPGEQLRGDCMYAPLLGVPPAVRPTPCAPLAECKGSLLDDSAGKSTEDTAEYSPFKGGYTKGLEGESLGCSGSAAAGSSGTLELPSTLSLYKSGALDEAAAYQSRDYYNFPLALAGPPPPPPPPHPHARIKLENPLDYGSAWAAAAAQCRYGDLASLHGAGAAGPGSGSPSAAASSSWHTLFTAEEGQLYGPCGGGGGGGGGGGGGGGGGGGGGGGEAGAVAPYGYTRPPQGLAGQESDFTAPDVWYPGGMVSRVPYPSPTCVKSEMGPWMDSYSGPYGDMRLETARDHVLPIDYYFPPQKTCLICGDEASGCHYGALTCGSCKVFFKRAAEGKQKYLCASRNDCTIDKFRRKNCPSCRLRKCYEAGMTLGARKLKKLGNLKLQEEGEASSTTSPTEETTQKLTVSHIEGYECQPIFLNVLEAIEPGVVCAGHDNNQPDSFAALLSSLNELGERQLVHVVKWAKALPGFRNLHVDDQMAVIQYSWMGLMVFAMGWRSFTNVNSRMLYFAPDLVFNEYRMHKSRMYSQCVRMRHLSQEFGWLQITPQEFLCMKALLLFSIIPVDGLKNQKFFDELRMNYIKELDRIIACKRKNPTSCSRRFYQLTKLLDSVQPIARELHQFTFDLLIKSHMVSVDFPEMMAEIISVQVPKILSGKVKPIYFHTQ

Target: androgen receptor (Homo sapiens, UniProt P10275)
Assay: Yeast two-hybrid screening of unbiased X15 peptide library, ligand induced β-galactosidase activity (FIG. 3, Table 503)
Assay type: cell-based
Design: expressed in transfected cells; host or cells: Saccharomyces cerevisiae PJ69-4α
Conditions: untitled table before Table 503; values match DHT / No Lig of Table 503

EFRFPFHEMVREWESMGLERVRYAEP [M4D1] gave a Fold induction of over 2.
